Assay results: patent publication US20120016019A1, “PHARMACEUTICAL COMPOSITION FOR TREATING OR PREVENTING CANCER” (priority 2010, published 2012)

How the values were obtained:
[1] = system: HeLa; conditions: human, 48 h, 220 nM
Procedure: (§1) Cells were plated into 48-well Corning CellBind™ plates at densities of 20,000 cells for normal cells and 10,000˜20,000 cells for cancer cells. 24 to 48 h after plating, cells were treated with the composition according to the invention at concentrations of 4.5e-2M. The first time point treated with the composition of the invention is 0 h. At 3 days after the first treatment with the composition of the invention, medium was changed and the composition of the invention at the same concentrations were added to the cultured cells.
(§2) Cells were harvested using Trypsin-EDTA at the designated time points. When total cells for each well were counted with a Beckman-Coulter Z1 Particle Characterization Unit, the vertical axis represents 1/20 of cell number in the Figures attached to the specification, while when counted with a Beckman-Coulter Vi-Cell, the vertical axis represents cell number in the Figures. Two 48-well plates were used per cell line, and they were measured at 0 h, 12 h, 24 h, 48 h, 4 d and 7 d, respectively.
(§3) The viability was determined by using the trypan blue staining in the well of cell counting.

[2] = system: MDA-MB-231; conditions: human, 7 d, 220 nM
Procedure: as §1, §2, §3

[3] = system: TT; test: Viability by trypan blue staining, TT; assay type: cell-based; conditions: 2nd week (recovery), 7 d, single value

CC(=O)O[C@H]1C(=O)[C@@]2(C)[C@H]([C@H](OC(=O)c3ccccc3)[C@]3(O)C[C@H](OC(=O)[C@H](O)[C@@H](NC(=O)c4ccccc4)c4ccccc4)C(C)=C1C3(C)C)[C@]1(OC(C)=O)CO[C@@H]1C[C@@H]2O [Taxol]
33.3%: viability (%) [1] | viability (%) [2] | viability (%) calculated from the cell counts [3]
